## Binding of CDR-mutated scFvs to a peptide of the spike HR2 region

Data: MIT Lincoln Laboratory AlphaSeq set, Li et al. 2023, doi:10.1038/s41467-023-39022-2, as distributed in FLAb.

The target is the same throughout: PDVDLGDISGINAS, from the HR2 region of SARS-CoV-2 spike.

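The starting antibody came from a phage panning campaign against this peptide. The variants were designed computationally from a first round of random CDR variants and then made and measured. Group labels follow the data file (Ctrl: baseline library sampled from a position-specific scoring matrix, with some repeated check sequences; Rand: our label for a block that the file lists under HC and that is probably the random mutants of the ten best first-round binders; En: ensemble of fine-tuned language models; GP: Gaussian process model; GPLM: also part of the Gaussian process libraries; HC: hill climbing; Gen: genetic algorithm; Gibbs: Gibbs sampling; a sequence that several methods proposed may carry one label only). AlphaSeq pools MATa yeast showing the antibodies with MATalpha yeast showing the peptide. After mating in shaken culture at 30 °C for 16 h, diploids were selected and their barcode pairs sequenced. Scores were corrected for input abundance and mapped to Kd with protein pairs of known affinity run in the same pool. Each pool was mated in six replicate cultures.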

The variants keep the light chain, the linker and the frameworks of Ab-14 (scFv order VH, the linker GGGGSGGGGSGGGGS, VL).
VH: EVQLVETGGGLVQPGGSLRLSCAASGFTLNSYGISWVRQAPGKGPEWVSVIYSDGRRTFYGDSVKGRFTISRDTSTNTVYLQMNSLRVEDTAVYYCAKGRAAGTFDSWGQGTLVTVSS
VL: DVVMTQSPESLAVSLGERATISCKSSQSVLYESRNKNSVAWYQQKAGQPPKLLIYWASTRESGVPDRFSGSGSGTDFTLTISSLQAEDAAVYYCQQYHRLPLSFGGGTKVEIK

Substitutions are numbered in sequence along the VH above, starting at 1 (not Kabat).
Variants here have at most six changes.
Kd is apparent (estimated from mating counts) and averaged on the log scale over replicates with a signal. Smaller is tighter.
"not detected" marks a missing value. The strain was present, yet no cells mated with the target were sequenced in any replicate, which points to weak or no binding.
Order: sorted from the lowest average up, undetected variants last.
The parent sequence was in this pool as ten entries: three were never detected, three once, and four in most replicates, with averages from 2.2 nM to 240 nM.

changes	group	Kd	replicates with signal	control signals
T28D S31E S53A G61I R100N A101V	En_HC	210 pM	6 of 6	0 of 18
T28S G61Q R100E S107A	GP_Gibbs	440 pM	6 of 6	0 of 18
T28S S31E F59W	GPLM_Gen	1.2 nM	6 of 6	0 of 18
T28D R56K G61S A101T	GP_Gen	1.3 nM	6 of 6	0 of 18
T28D R56K A101W	GP_Gen	1.3 nM	6 of 6	1 of 18
T28D T58A A101T	GP_Gen	2.0 nM	6 of 6	1 of 18
S31D G61S A102G	GP_HC	2.1 nM	6 of 6	1 of 18
S31E G61T R100E A101T	GPLM_HC	2.3 nM	6 of 6	1 of 18
T28D S31E S53A G61A R100N A101E	En_HC	2.3 nM	6 of 6	0 of 18
T28N R100V A101E	GPLM_Gibbs	2.5 nM	6 of 6	2 of 18
T28S G61A A101T S107F	GPLM_Gen	3.4 nM	6 of 6	0 of 18
S31Q F59A D106V	GP_HC	5.0 nM	5 of 6	0 of 18
S31D A101M	GPLM_HC	5.2 nM	6 of 6	2 of 18
T28Q G61V A101T	GP_Gen	5.2 nM	6 of 6	0 of 18
T28D A101T T104A	GPLM_Gen	6.1 nM	6 of 6	1 of 18
T28S R100S S107N	GP_Gen	6.7 nM	6 of 6	1 of 18
T28C S31D F59S G61I	GP_HC	6.8 nM	6 of 6	0 of 18
R56V G61S R100K	GPLM_Gen	8.9 nM	6 of 6	2 of 18
S31E G61Q A101F S107R	GP_HC	10 nM	6 of 6	0 of 18
T28E G61S R100S A101T	GP_Gen	11 nM	6 of 6	1 of 18
G26K T28E S31E R100K A101T	GP_Gen	13 nM	3 of 6	0 of 18
T28W S53A R100H	GP_HC	15 nM	5 of 6	0 of 18
S31E R56M A101Q D106I	GP_HC	16 nM	2 of 6	0 of 18
T28D G61A S63W R100N S107N	GP_Gibbs	17 nM	4 of 6	0 of 18
R100M A101L S107T	GP_Gibbs	18 nM	6 of 6	0 of 18
T28S S31D S63E A101T S107A	GP_Gibbs	19 nM	3 of 6	0 of 18
G61T R100M A101V	GP_HC	22 nM	6 of 6	0 of 18
G26D G61A	Ctrl	39 nM	6 of 6	0 of 18
S63Q R100K A101T	GP_Gen	140 nM	5 of 6	0 of 18
G26K T28E S31K A101T	GP_Gen	380 nM	1 of 6	0 of 18
T28S S31E G61S T104Q	GPLM_HC	not detected	0 of 6	0 of 18
T28Q G61I R100Q A101L	GP_HC	not detected	0 of 6	0 of 18
T28G S31N G61S G103V T104A	Ctrl	not detected	0 of 6	1 of 18
S31E D62E G103V S107V	GP_HC	not detected	0 of 6	1 of 18
S31E I51V Y60W G61T A101I F105E	Rand	not detected	0 of 6	0 of 18
G61H T104E S107H	Ctrl	not detected	0 of 6	0 of 18
S35T G61L R100Q	Ctrl	not detected	0 of 6	0 of 18
S31Q G61S D62P A102Q	Ctrl	not detected	0 of 6	0 of 18
Y32F R100K A102D T104M	Ctrl	not detected	0 of 6	0 of 18
S31E G103D S107Q	GP_HC	not detected	0 of 6	0 of 18
F27E R56K G103K	Ctrl	not detected	0 of 6	0 of 18
T28S S31D I34G R100S A101V A102S	Ctrl	not detected	0 of 6	0 of 18
S31D R56W T104F	Ctrl	not detected	0 of 6	0 of 18
F105N	Ctrl	not detected	0 of 6	0 of 18
R56V S63R	Ctrl	not detected	0 of 6	0 of 18

Repeated from above, the 3 best binders with a signal in all replicates:

{"changes": "T28D S31E S53A G61I R100N A101V", "group": "En_HC", "Kd": "210 pM", "replicates with signal": "6 of 6", "control signals": "0 of 18"}
{"changes": "T28S G61Q R100E S107A", "group": "GP_Gibbs", "Kd": "440 pM", "replicates with signal": "6 of 6", "control signals": "0 of 18"}
{"changes": "T28S S31E F59W", "group": "GPLM_Gen", "Kd": "1.2 nM", "replicates with signal": "6 of 6", "control signals": "0 of 18"}

Three control strains display no target. For all heavy chain designs, 1% of the pairings with them gave a signal, with a median of 120 nM and one signal in twenty below 7.0 nM, so weak values seen in few replicates may be background. The control count says in how many pairings with the empty strains this scFv gave a signal.
A sequence measured in both rounds can read differently, since the two assays cover different ranges.
The authors averaged sequences with at least three values out of six and counted those with two or fewer as poor binders.